Only some compounds are listed: those with a hit (about 3.7% of all), similar ones and a draw of the others.
A549 viability: kills or reduces viability of A549 cells in Nrf2 counter-screen. A549 ARE-Fluc cells, CellTiter-Fluor viability, 18-24 h. Potency, µM (doses to about 46 µM), inactives show at the top dose activity change, negative = cytotoxicity, hits mostly inhibitors. 390,000 compounds, 0.16% hits. AID 504648; note: potency is the fitted concentration of half-maximal effect; % is set by controls: 0 for no effect and ±100 for the full control effect
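A549 ARE-Fluc cells in 5% FBS OPTI-MEM, 5000 cells/well, rested 2 h then exposed to compounds in concentration-response for 18-24 h at 37 °C. Viability by CellTiter-Fluor fluorescence (Ex 405/Em 525) after 30 min; luciferase luminescence (BugLite, 15 min, RT) read afterwards.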
p53 reactivation: restores transcriptional activity of mutant p53 | H1299 p53-A138V BP100-luciferase reporter, luminescence, 24 h | Potency, µM (highest dose often 92.2 µM), inactives show top-dose activity change, positive = activation, usual class: activators | 320,000 compounds, 0.063% hits | AID 504706; note: potency is the fitted concentration of half-maximal effect; % of control where 0% means no effect; nearly all actives have a fitted effect of over 45% in size
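p53-null H1299 cells stably carrying temperature-sensitive p53-A138V and a BP100-luciferase reporter were pinned with compounds (4-point, 1:5 series) and held 24 hrs at 37 deg C. Luminescence was read 10 min after detection reagent.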
Nrf2 ARE act: Nrf2 pathway activation. 410,000 compounds, 0.31% hits. AREc32 ARE-luciferase reporter (MCF7-derived line), luminescence, 24 h. AID 624171. Potency, µM (top dose mostly 46.1 µM), for the others: at the top dose activation, usual class: activators; note: potency is the fitted concentration of half-maximal effect; % of control where 0% means no effect; nearly all actives have a fitted effect of over 65% in size
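Nrf2 activation is followed as ARE-luciferase induction in the AREc32 line after one day of compound treatment; luminescence is read with Steady-Glo.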
Nrf2 block: blocks Nrf2 signaling; A549 ARE-Fluc reporter, luciferase luminescence, 18-24 h; Potency, µM (highest dose often 46 µM), for the others: at the top dose activity change, negative = inhibition, most hits filed as inhibitors; 360,000 compounds, 2.1% hits; note: potency is the fitted concentration of half-maximal effect; % is set by controls: 0 for no effect and ±100 for the full control effect; nearly all actives have a fitted effect of over 60% in size
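Nrf2 function is reported as luminescence of an ARE-controlled luciferase in A549 cells. Compounds were tested at several concentrations, and a CellTiter-Fluor read on the same wells flagged cytotoxicity.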
ClpP mod: qHTS Assay for Activators of ClpP | ATP-dependent Clp protease proteolytic subunit (Bacillus subtilis (strain 168)), P80244 | purified B. subtilis ClpP, FRET peptide cleavage, 20 min | Potency, µM (doses to about 57.5 µM), inactives show at the highest dose activity change, negative = active | 340,000 compounds, 1.9% hits | AID 651965, 2013; active = well fitted falling curve with a large enough effect; inconclusive = small, poorly fitted or top-dose-only effect; inactive = no such curve, though single readings can be large or run the other way; note: potency is the fitted concentration of half-maximal effect; the source files actives as falling curves though it sought activators and does not explain the sign; nearly all actives have a fitted effect of over 65% in size
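Buffer: 100 mM Tris/HCl pH8, 100 mM KCl, 0.05% low protease BSA, 2.5% glycerol, 0.01% Tween-20. ClpP 10 microg/mL final; 20 min RT; delta FRET normalized to ADEP and DMSO controls.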
miR-21 reporter: miR-21 reporter, rising signal. 340,000 tested, under 10 active. Potency, µM (highest dose often 38.3 µM), for the others: at the highest dose reporter change, positive = more light. HeLa miR-21 FLuc reporter, luciferase, 48 h. AID 2288; active = well fitted rising curve with a large enough effect; inconclusive = small, poorly fitted or top-dose-only effect; inactive = no such curve, though single readings can be large or run the other way;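 further: % of control where 0% means no effect; miR-21 action dims this reporter so a rising signal means less miR-21 action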
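HeLa cells stably expressing CMV-driven firefly luciferase with a downstream miR-21 binding sequence, endogenously expressing miR-21, were treated with titrations (up to about 40uM final) for 48 hours at 37 degree Celsius. Luciferase luminescence was read after lysis.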
Starred values were filed as active, the others as inactive; ? = inconclusive; / = no result given. Unless noted, calls come from the whole dose curve; as a rule, active = well fitted curve in the direction sought with a large enough effect; inconclusive = small, poorly fitted or top-dose-only effect, or another doubt; inactive = no such curve, though single readings can be large; an effect the other way counts as inactive or inconclusive.

The chains behind the UniProt entries cited, without tags or fusion partners.
ATP-dependent Clp protease proteolytic subunit (Bacillus subtilis (strain 168)), P80244, UniProt P80244, whole entry, looked up: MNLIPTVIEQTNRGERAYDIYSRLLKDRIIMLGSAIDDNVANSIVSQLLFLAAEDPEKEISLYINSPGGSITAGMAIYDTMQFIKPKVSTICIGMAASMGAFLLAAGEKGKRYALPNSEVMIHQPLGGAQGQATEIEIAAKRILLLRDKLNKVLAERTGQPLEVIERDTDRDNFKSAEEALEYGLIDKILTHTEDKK

(1) CC1CCCCC12NC(=O)N(CC(=O)N1CCc3ccccc3C1)C2=O (stereo not given)
(2) COc1cc2c3nnc(-c4ccc(F)cc4)c-3cn(Cc3ccc(C)cc3)c2cc1OC
(3) COc1cc2c3nnc(-c4ccccc4)c-3cn(Cc3ccc(F)cc3)c2cc1OC
(4) O=S1(=O)CCO[C@H]2CCCC[C@@H]2N1Cc1cccc(F)c1
(5) O=C(NCCc1ccccc1)c1cc2ccccc2oc1=O
(6) COc1ccc(CCNC(=O)c2cc3ccccc3oc2=O)cc1
(7) CCCC(=O)OCCNC(=O)c1cc2ccccc2oc1=O
(8) CN(C)CCNC(=O)c1cc2ccccc2oc1=O

Assay by compound	1	2	3	4	5	6	7	8
A549 viability	0.0%	13.9%	-2.8%	/	-0.8%	-8.1%	-22.9%	-2.7%
p53 reactivation	-6.3%	?	-0.3%	/	12.0%	14.1%	?	0.4%
Nrf2 ARE act	0.2%	-1.1%	13.6%	/	2.4%	2.4%	0.7%	1.9%
Nrf2 block	5.7%	10.5%	5.5%	/	10.0%	6.0%	/	/
ClpP mod	-21.8%	20µM*	/	1.4%	-18.8%	-0.7%	17.8µM*	28.2µM*
miR-21 reporter	/	-0.5%	-7.7%	/	0.3%	-5.2%	-6.0%	-5.5%

(9) CC(=O)OCCNC(=O)c1cc2ccccc2oc1=O
(10) O=C(NCCCN1CCOCC1)c1cc2ccccc2oc1=O
(11) CCc1ccccc1N(C)C
(12) COc1ccc2c(c1)CC/C(=C/c1ccncc1)C2=O
(13) COc1ccc2c(c1)CC/C(=C\c1ccc(C)o1)C2=O
(14) O=C(NCCO)c1cccc(-c2cnc3c(Nc4cccc(OC(F)(F)C(F)F)c4)nccn23)c1
(15) Cc1ccc(S(=O)(=O)Nc2ccc(Nc3nccn4c(-c5cccc(OC(F)(F)F)c5)cnc34)cc2)cc1
(16) Cc1ccc(C(=O)NNC(=O)Cn2ccc(C(F)(F)F)n2)o1

Assay by compound	9	10	11	12	13	14	15	16
A549 viability	-1.4%	-1.8%	/	2.0%	5.6%	/	/	3.9%
p53 reactivation	4.2%	14.4%	/	?	?	/	/	2.1%
Nrf2 ARE act	0.5%	-0.5%	/	22.4µM*	?	-2.1%	-0.4%	-0.4%
Nrf2 block	/	6.1%	/	-29.8%	19.4%	/	/	-3.1%
ClpP mod	25.1µM*	28.2µM*	0.9%	-3.0%	-1.9%	-16.4%	31.6µM*	25.1µM*
miR-21 reporter	-11.0%	-8.3%	/	9.8%	-66.4%	/	/	/

Next section, overlapping the part above by three compounds.
(14) O=C(NCCO)c1cccc(-c2cnc3c(Nc4cccc(OC(F)(F)C(F)F)c4)nccn23)c1
(15) Cc1ccc(S(=O)(=O)Nc2ccc(Nc3nccn4c(-c5cccc(OC(F)(F)F)c5)cnc34)cc2)cc1
(16) Cc1ccc(C(=O)NNC(=O)Cn2ccc(C(F)(F)F)n2)o1
(17) O=C(Cn1ccc(C(F)(F)F)n1)NNC(=O)c1cccnc1
(18) COc1cccc(CNS(=O)(=O)c2cn(C)cn2)c1
(19) Cn1cnc(S(=O)(=O)NCc2ccccc2)c1
(20) Cc1nn(-c2ccccn2)c2c1C(c1ccsc1)C1=C(CCCC1=O)N2 (stereo not given)
(21) Cc1cccc(-n2nc(C)c3c2NC2=C(C(=O)CCC2)C3c2ccccn2)c1 (stereo not given)
(22) CCCCN(CCCC)S(=O)(=O)c1ccc(C(=O)Nc2nnc(CSC)o2)cc1
(23) CCCCN(CC)S(=O)(=O)c1ccc(C(=O)Nc2nnc(CSC)o2)cc1
(24) CCCN(CCC)S(=O)(=O)c1ccc(C(=O)Nc2nnc(CSC)o2)cc1
(25) CCCCSc1nnc2c(n1)OC(c1ccc(Br)s1)Nc1ccccc1-2 (stereo not given)
(26) CCOC(=O)c1c(C)oc2c1c(C=NCCO)c(O)c1ccccc12
(27) CCN(CC)CCN(C(=O)c1ccco1)c1nc2ccc(Br)cc2s1

Assay by compound	14	15	16	17	18	19	20	21	22	23	24	25	26	27
A549 viability	/	/	3.9%	1.5%	-0.7%	1.3%	-12.1%	-7.9%	-24.5%	-21.0%	-18.0%	-0.9%	23.1µM*	?
p53 reactivation	/	/	2.1%	-2.9%	11.5%	-6.2%	2.4%	-1.5%	11.9%	23.1%	15.7%	/	0.4%	/
Nrf2 ARE act	-2.1%	-0.4%	-0.4%	-0.5%	0.5%	-0.7%	2.2%	4.2%	-0.1%	-2.0%	-0.2%	5.6%	1.5%	3.8%
Nrf2 block	/	/	-3.1%	1.6%	-8.9%	9.9%	?	-22.3%	7.31µM*	?	9.2µM*	15.0%	14.6µM*	10.0%
ClpP mod	-16.4%	31.6µM*	25.1µM*	0.9%	14.1µM*	0.5%	25.1µM*	-1.6%	-1.1%	-0.6%	0.2%	-0.1%	/	-0.7%
miR-21 reporter	/	/	/	-0.5%	-5.4%	-0.9%	-0.8%	-3.5%	-0.6%	?	25.4%	-48.3%	26.8%	-11.1%

Bioassay records (PubChem)
